Measured values published in patent publication US20180256495A1 (MEDRx Co., Ltd., priority 2008, published 2018).

Assay: State of the liquid preparation (precipitation, homogeneity, solubility or dispersion of the salt)
Conditions: morphine 2 w/w % liquid preparation with the row's acid; wrapped cell 'small amount of' + 'precipitation' = small amount of white precipitation remained

## CC(=O)Oc1ccccc1C(=O)O [acetylsalicylic acid]
  Remarks (state of the liquid preparation): homogeneous solution
